# Test results taken from US11767341B2, “Lincosamide antibiotics and uses thereof” (President and Fellows of Harvard College, priority 2017, dated 2023).
# How the values were obtained:
# Experiment in all cases: MIC determination
# Assay type in all cases: cell-based
# [1] = tested on: S. aureus UNT-120, MP-619, NRS22 (USA 600, GISA); details: Staphylococcus aureus
# [2] = tested on: K. pneumoniae IHMA 658692; KPC-2; details: Klebsiella pneumoniae
# E. faecalis UNT-047 VRE = details: Enterococcus faecalis
# K. pneumoniae UNT TEM-10 = details: Klebsiella pneumoniae, UNTTEM10
# [3] = tested on: S. aureus UNT-146, MP-620, TP 506 (ermA); details: Staphylococcus aureus
# [4] = tested on: S. aureus BAA-1556 (USA 300); details: Staphylococcus aureus
# [5] = tested on: S. pneumoniae TP 1537 (ermB + mefA); details: Streptococcus pneumoniae
# [6] = tested on: S. aureus UNT96, NRS710, MP-618 (USA 100, Erythro >8); details: Staphylococcus aureus
compound,measurement,setting,value
"CCC[C@@H]1C[C@@H](C(=O)N[C@@H]([C@H]2O[C@H](SC)[C@H](O)[C@@H](O)[C@H]2O)[C@H](C)Cl)N(C)C1 [Clindamycin, clindamycin, reference compound]",MIC,[1],> 32 µg/mL
same,MIC,[2],> 32 µg/mL
same,MIC,E. faecalis UNT-047 VRE,> 30 µg/mL
same,MIC,K. pneumoniae UNT TEM-10,> 32 µg/mL
same,MIC,[3],> 32 µg/mL
same,MIC,[4],> 32 µg/mL
same,MIC,[5],> 32 µg/mL
same,MIC,[6],> 32 µg/mL
